The results in this text go back to PubChem BioAssay AID720704 (The Scripps Research Institute Molecular Screening Center, 2013).

Amino acid sequences for entries named in this document (tags omitted).
UniProt Q01970, whole entry, looked up: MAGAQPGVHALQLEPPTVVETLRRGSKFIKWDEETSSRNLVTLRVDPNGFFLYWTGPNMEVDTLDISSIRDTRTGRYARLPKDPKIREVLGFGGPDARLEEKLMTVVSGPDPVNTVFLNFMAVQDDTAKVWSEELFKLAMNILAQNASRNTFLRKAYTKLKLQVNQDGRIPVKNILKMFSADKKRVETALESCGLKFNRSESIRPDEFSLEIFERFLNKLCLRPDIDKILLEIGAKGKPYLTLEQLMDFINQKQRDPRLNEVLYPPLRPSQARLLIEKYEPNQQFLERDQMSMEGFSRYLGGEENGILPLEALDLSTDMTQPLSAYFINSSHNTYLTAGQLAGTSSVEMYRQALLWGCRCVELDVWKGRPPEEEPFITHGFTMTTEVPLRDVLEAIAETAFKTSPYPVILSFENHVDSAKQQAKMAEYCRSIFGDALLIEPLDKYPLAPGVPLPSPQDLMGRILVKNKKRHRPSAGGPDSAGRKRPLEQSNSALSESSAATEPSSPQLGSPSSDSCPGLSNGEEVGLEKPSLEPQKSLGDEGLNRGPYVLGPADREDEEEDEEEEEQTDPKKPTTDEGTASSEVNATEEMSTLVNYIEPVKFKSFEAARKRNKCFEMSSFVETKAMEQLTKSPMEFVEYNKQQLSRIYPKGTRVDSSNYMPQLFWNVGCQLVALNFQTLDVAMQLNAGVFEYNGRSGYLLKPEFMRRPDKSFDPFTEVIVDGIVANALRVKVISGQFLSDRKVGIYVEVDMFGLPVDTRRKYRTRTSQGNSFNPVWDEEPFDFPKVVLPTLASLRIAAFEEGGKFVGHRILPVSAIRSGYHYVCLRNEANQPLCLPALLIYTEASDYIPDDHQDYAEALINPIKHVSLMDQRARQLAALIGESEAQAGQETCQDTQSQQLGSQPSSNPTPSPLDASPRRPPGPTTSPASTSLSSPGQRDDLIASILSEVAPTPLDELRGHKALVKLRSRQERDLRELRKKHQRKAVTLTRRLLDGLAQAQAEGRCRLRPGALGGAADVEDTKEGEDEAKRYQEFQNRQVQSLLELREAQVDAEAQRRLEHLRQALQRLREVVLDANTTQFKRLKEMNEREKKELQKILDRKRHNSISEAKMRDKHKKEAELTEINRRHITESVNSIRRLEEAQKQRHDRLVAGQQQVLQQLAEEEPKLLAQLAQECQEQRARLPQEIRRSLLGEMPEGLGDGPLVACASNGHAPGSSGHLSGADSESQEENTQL

This is a selection; strong and weak results do not stand in their true shares. Active and inactive are the calls of the source. No stated cut-off is given here; in the data, active means inhibition above about 11%; inactive means the rest.

The assay deals with 1-phosphatidylinositol 4,5-bisphosphate phosphodiesterase beta-3 (Homo sapiens) (UniProt Q01970). Briefly: phospholipase C beta3 enzyme inhibition – biochemical, fluorescence, primary screen (AID 720704).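 Further: 0% = median of compound wells on plate and 100% = full blocker control.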 The conditions noted are these: Purified PLC-beta3, fluorogenic substrate, at 12.2 µM, stronger effect = higher value.
In the case of `O=C(Nc1cc([As](=O)(O)O)ccc1O)c1ccccc1`, the inhibition is inactive: -3.47%.

For the compound `O=P1(N(CCCl)CCCl)OCCCS1` (centres undefined), the inhibition is inactive: 0.74%. Turning to `O=C(O)CNc1ccc([As](=O)(O)O)cc1`, the inhibition is inactive: -4.58%. For `O=[N+]([O-])c1cccc(NC2=NCC(CBr)S2)c1` (centres undefined) the value was inactive: -2.19%. With `COC(=O)C1(C)COP(=O)(Nc2ccccc2)OC1` (centres undefined), the inhibition is inactive: 2.84%. Take `O=[N+]([O-])c1ncn(CCn2ncnc2[N+](=O)[O-])n1`: the inhibition is inactive: 4.44%. Consider `CC(C)(C)C(=O)NC(Sc1ccncn1)C(Cl)(Cl)Cl` (centres undefined), for which the inhibition is inactive: -4.59%. For `CCc1nc2c(n1)c1c(non1O)c1c2no[n+]1[O-]` the value was inactive: 0.85%; for `O=[N+]([O-])c1cc([N+](=O)[O-])c(CCNc2ccccc2)c([N+](=O)[O-])c1`, inactive: 2.16%; for `Cc1ccc(NP(=O)(Oc2ccccc2)Oc2ccccc2)nc1`, inactive: -5.36%. Turning to `O=[N+]([O-])c1cccc2n[nH]nc12`, the inhibition is inactive: -1.55%. `CC(=O)N1C2C3N(C(C)=O)C1C1N(C(C)=O)C(C(N1C(C)=O)N3C(C)=O)N2C(C)=O`: the inhibition is inactive: 0.74%. Under `COc1ccc(C2=NCC(CBr)S2)cc1` (centres undefined) stands inactive: -7.55%. With `c1cc(-c2nn[nH]n2)ccc1-c1nn[nH]n1`, the inhibition was inactive: 2.87%. As for `CC1CCN(C(=O)Oc2c(Cl)cc(Cl)c3cccnc23)CC1`, the inhibition was inactive: 0.08%. Regarding `CN(C)C(=O)OCCc1n(C)cc[n+]1C`, the inhibition was inactive: 4.96%. As to `CC(C)=N/N=C(\N)N[N+](=O)[O-]`, the inhibition was inactive: -0.02%. In the case of `CC(C)c1nc(Nc2ccccc2)n(P(=O)(N(C)C)N(C)C)n1`, the inhibition is inactive: 5.86%. For `CCN(/C(=N/P(=O)(N1CCOCC1)N1CCOCC1)N1CCOCC1)c1ccc(OC)cc1` the value was inactive: 5.95%; for `C[N+]1=C2C=CC=CC=C2SC12C([N+](=O)[O-])=CC([N+](=O)[O-])=C[C-]2[N+](=O)[O-]` (centres undefined), inactive: -6.99%.

For the compound `Nc1ccc([As](=O)(O)c2ccc(N)cc2)cc1`, the inhibition was inactive: -6.54%. For `Clc1ccc(Cl)c(NC2=NCC(CBr)S2)c1` (centres undefined), the inhibition is inactive: -1.77%.

On to `CN1CCCC(OC(=O)C(c2ccccc2)c2ccccc2)C1` (centres undefined), for which the inhibition was inactive: 1.25%. On to `Cc1ccc(OP(=O)(Nc2nccs2)Oc2ccc(C)cc2)cc1`, for which the inhibition is inactive: -8.06%. Turning to `COc1ccccc1OP(=O)(Nc1ccc(C)cn1)Oc1ccccc1OC`, the inhibition was inactive: 1.35%. For `Cc1ccc(N/C(=N/P(=O)(N2CCOCC2)N2CCOCC2)N2CCOCC2)cc1` the value was inactive: -5.11%; for `CN(C(=O)Cc1ccc(Cl)c(Cl)c1)[C@H]1CCCC[C@H]1N1CCCC1`, inactive: 3.93%. Under `NC(=O)c1cc([N+](=O)[O-])cc([N+](=O)[O-])c1N` stands inactive: -3.39%.

Consider `O=C(NC(Sc1ccncn1)C(Cl)(Cl)Cl)c1ccccc1` (centres undefined), for which the inhibition was inactive: 1.15%. Regarding `Oc1ccccc1CNc1ccccn1`, the inhibition was inactive: -0.86%. On to `CC(C)CC(=O)NC(Sc1ccc(Cl)cc1)C(Cl)(Cl)Cl` (centres undefined), for which the inhibition was inactive: -1.71%. Under `Nc1cc(N)c2nonc2c1[N+](=O)[O-]` stands inactive: -11.3%. As to `CCn1c(=O)n(C2CCN(CC3CCCCCCC3)C[C@H]2CO)c2ccccc21` (some centres undefined), the inhibition is inactive: 2.06%. `Cc1ccc(NP(=O)(Oc2ccccc2F)Oc2ccccc2F)nc1`: the inhibition is inactive: -5.85%. With `CN(C(=O)Cc1ccc(Cl)c(Cl)c1)[C@H]1CCCC[C@@H]1N1CCCC1`, the inhibition is inactive: -3.1%. Regarding `CCOP(=O)(Nc1ccccc1)OCC`, the inhibition is inactive: -0.13%. In the case of `Cc1cc(SC(NC(=O)c2ccc(F)cc2)C(Cl)(Cl)Cl)ncn1` (centres undefined), the inhibition was inactive: 4.49%. On to `CN(C)P(=O)(N(C)C)n1c(Nc2ccccc2)nnc1-c1ccccc1`, for which the inhibition is inactive: -0.58%. With `O=P(Nc1nc2ccc(Cl)cc2s1)(c1ccccc1)c1ccccc1`, the inhibition is inactive: -6.14%. `CCCC1OP(N)(=O)OCC1CC` (centres undefined): the inhibition was inactive: 5.24%. For `O=C(O)c1ccccc1[As](=O)(O)O`, the inhibition was inactive: -1.26%. Turning to `CC(=O)Nc1ccc([As](=O)(O)O)cc1`, the inhibition is inactive: -4.54%. Under `CCN(N=Nc1nonc1N)c1nonc1N` stands inactive: 4.64%. For `CN(C(=O)Cc1ccccc1)C1CC[C@@]2(CCCO2)C[C@@H]1N1CCCC1` (some centres undefined) the value was inactive: -7.25%; for `O=P1(N(CCCl)CCCl)OCCC2CCCCN21` (centres undefined), inactive: 5.98%; for `Cc1ccc(NP(=O)(Oc2cccc(C)c2)Oc2cccc(C)c2)nc1`, inactive: -4.97%.

Turning to `c1ccc(-c2nn[nH]n2)c(-c2nn[nH]n2)c1`, the inhibition was inactive: 1.88%. For `CCNC(=S)/N=C(\N)N[N+](=O)[O-]` the value was inactive: 1.97%; for `O=C(NC1CCS(=O)(=O)C1)NP(=S)(Oc1ccccc1)Oc1ccccc1` (centres undefined), inactive: -2.83%; for `CN(C)C(=O)Oc1noc2ccccc12`, inactive: -1.05%.

On to `O=c1c2cc([N+](=O)[O-])ccc2[nH]c2c([N+](=O)[O-])cc([N+](=O)[O-])cc12`, for which the inhibition is inactive: -2.2%.

Regarding `Cc1ccccc1OP(=O)(Nc1ccccn1)Oc1ccccc1C`, the inhibition was inactive: -8.48%. For `CC(NC(=O)COC(=O)C(O)(c1ccccc1)c1ccccc1)c1ccccc1` (centres undefined), the inhibition is inactive: -2.72%. Under `CCC(=O)N1C2C3N(C(=O)CC)C1C1N(C(=O)CC)C(C(N1C(=O)CC)N3C(=O)CC)N2C(=O)CC` stands inactive: -0.64%; under `O=C(OC1CN2CCC1CC2)c1ccccc1` (centres undefined), inactive: -10%.

Take `Cc1ccc(OP(=O)(Nc2ccccn2)Oc2ccc(C)cc2)cc1`: the inhibition was inactive: 2.3%. Turning to `CC(=O)NC(SC(=S)N(CC(C)C)CC(C)C)C(Cl)(Cl)Cl` (centres undefined), the inhibition is inactive: 0.76%.

`COC(=O)c1cc2c(s1)N=C(c1ccccc1)N(C)P2(=O)N1CCOCC1` (centres undefined): the inhibition was inactive: -5.15%. Under `CC(C)(C)C(=O)NC(Sc1ccccc1)C(Cl)(Cl)Cl` (centres undefined) stands inactive: -5.03%.

In the case of `CCc1cc(O)c([N+](=O)[O-])c(C)c1[N+](=O)[O-]`, the inhibition is inactive: -0.35%. On to `CCOc1ccc(C2=NCC(CBr)S2)cc1` (centres undefined), for which the inhibition is inactive: 1.19%.

In the case of `O=P1(Nc2nc3ccc(Cl)cc3s2)COc2ccccc2O1` (centres undefined), the inhibition was inactive: -0.45%. Take `CC(=O)Nc1ccc(Oc2c([N+](=O)[O-])cc([N+](=O)[O-])cc2[N+](=O)[O-])cc1`: the inhibition is inactive: -0.82%. For `CC(=O)Nc1ccc([As](=O)(O)O)c(O)c1` the value was inactive: -1.39%.

For orientation: inhibition means the relative decrease from the control value, in per cent.
